# Biological target: Programmed Death Ligand-1 (PD-L1) (human) (UniProt Q9NZQ7)
# Assay: cell-based or functional assay
substance,measurement,value
"TPP-3615, anti-PD-L1 huIgG2 antibody cloned using the variable domains of Atezolizumab","IFNg [pg/ml], absolute mean, TC + HCC/1 µg/ml FLU pep + 30 µg/ml antibody (isotype TPP-1238: 787.3)",888 pg/mL
same,"IFNg [pg/ml], isotype corrected, FluM1 T cells + HCC2935, single agent, experiment 1",70.7 pg/mL
same,"IFNg [pg/ml], isotype corrected, FluM1 T cells + HCC2935, single agent, experiment 2",42 pg/mL
same,"IFNg [pg/ml], isotype corrected, FluM1 T cells + HCC2935, single agent, experiment 3",41.9 pg/mL
same,"IFNg [pg/ml], isotype corrected, FluM1 T cells + HCC2935, single agent, experiment 4",26.3 pg/mL
same,"IFNg [pg/ml], isotype corrected, FluM1 T cells + HCC2935, single agent, experiment 5",46.8 pg/mL
same,"IFNg [pg/ml], isotype corrected, FluM1 T cells + HCC2935, single agent, experiment 6",76.1 pg/mL
same,"IFNg [pg/ml], isotype corrected, FluM1 T cells + HCC2935, single agent, experiment 7",-26.3 pg/mL
same,"IFNg [pg/ml], isotype corrected, FluM1 T cells + HCC2935, single agent, mean of n = 7",39.6 pg/mL

# Reference: patent US20220089721A1
